In PubChem BioAssay AID1918 (Vanderbilt High Throughput Screening Facility, 2009):
Only a part is listed here, and it is no random draw. The source made the active and inactive calls.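 How the source made its calls: active means signal ratio slope over the read window, or its plate-corrected B-score, at least 3 SD from the plate mean, either direction; inactive means the rest.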

Protein sequences, listed by entry. Tags and fused reporters are not part of them.
UniProt P48048, whole entry: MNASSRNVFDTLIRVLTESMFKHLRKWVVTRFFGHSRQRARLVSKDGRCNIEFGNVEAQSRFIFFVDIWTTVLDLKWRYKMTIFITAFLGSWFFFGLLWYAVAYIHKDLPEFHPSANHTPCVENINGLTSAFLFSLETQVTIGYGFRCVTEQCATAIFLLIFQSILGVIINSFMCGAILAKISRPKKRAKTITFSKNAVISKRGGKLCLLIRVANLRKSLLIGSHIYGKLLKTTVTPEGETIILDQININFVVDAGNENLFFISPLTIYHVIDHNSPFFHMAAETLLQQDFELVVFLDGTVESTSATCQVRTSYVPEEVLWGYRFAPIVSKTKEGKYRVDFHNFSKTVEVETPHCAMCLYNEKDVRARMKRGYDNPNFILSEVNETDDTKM

Each compound was assayed against ATP-sensitive inward rectifier potassium channel 1 (Homo sapiens) (UniProt P48048) (assay: ROMK potassium channel modulators, primary screen, cell-based, thallium flux, MLSMR library (AID 1918;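 further: B-score of the F/F0 ratio slope over 7 to 12 s after thallium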)). Conditions: Tet-inducible ROMK, thallium flux fluorescence; at 10 µM; actives lie on both sides.

SMILES	B-score
COc1ccc(NC2CCN(C(=O)OC(C)(C)C)CC2)cc1	inactive: 0.752
CN1CCN(CCOC(=O)C(O)(c2ccccc2)c2ccccc2)CC1	inactive: 1.55
O=C(NCC1(N2CCCCC2)CCCCC1)c1cccc([N+](=O)[O-])c1	inactive: 0.307
CC(C)c1ccc(NC2CCN(C(=O)OC(C)(C)C)CC2)cc1	inactive: 0.112
COc1ccc(CN(CCCl)CCCl)cc1Cl	inactive: -0.149
CN(C)c1cccc(C(=O)NCC2(N3CCCCC3)CCCCC2)c1	inactive: 0.253
O=C(OC1CN2CCC1CC2)C1c2ccccc2Oc2ccccc21 (configuration not stated)	inactive: -2.82
CCOC(=O)N1CCC(Nc2ccc(OC)cc2)CC1	inactive: -0.31
COc1ccc(C(=O)NCC2(N3CCCCC3)CCCCC2)c(OC)c1OC	inactive: -0.167
COc1ccc(NC2CCN(CCc3ccccc3)CC2)c(OC)c1	inactive: -2.14
CCN1CCC(Nc2cccc(F)c2)CC1	inactive: -0.375
CN(C)c1ccc(C(=O)NCC2(N3CCCCC3)CCCCC2)cc1	inactive: -0.192
COc1cc(OC)cc(C(=O)NCC2(N3CCOCC3)CCCCC2)c1	inactive: 1.29
CC(C)(C)OC(=O)N1CCC(Nc2ccccc2)CC1	inactive: 0.151
O=C(OC1CN2CCC1CC2)C1c2ccccc2C=Cc2ccccc21 (configuration not stated)	inactive: -0.774
COc1ccc(C(=O)NCC2(N3CCOCC3)CCCCC2)cc1OC	inactive: 1
N#Cc1ccc(C(=O)NCC2(N3CCCCC3)CCCCC2)cc1	inactive: 1.29
